Laboratory results from patent US20040082013A1, “Methods for screening for substances which inhibit fp prostanoid receptor interaction with a compound having pgf2alpha activity and methods of treating cancer” (priority 2003, published 2004).

Sequences of proteins named here, by UniProt entry; tags and fusion partners are left off. Residues count along the entry.
UniProt Q28905, 1-317 isoform Q28905-2: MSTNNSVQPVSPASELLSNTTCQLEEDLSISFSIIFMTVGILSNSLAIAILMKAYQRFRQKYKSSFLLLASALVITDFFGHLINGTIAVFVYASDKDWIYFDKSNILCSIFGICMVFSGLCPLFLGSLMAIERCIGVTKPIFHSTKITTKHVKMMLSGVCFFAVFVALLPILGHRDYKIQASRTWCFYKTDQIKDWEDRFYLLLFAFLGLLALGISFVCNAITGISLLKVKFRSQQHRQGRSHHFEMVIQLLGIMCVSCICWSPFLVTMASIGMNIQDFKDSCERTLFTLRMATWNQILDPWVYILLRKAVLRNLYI

Legend:
[1] = biological target: T1, ovine FPA prostanoid receptor (Ovis aries, UniProt Q28905); conditions: FPA expressing cells; cited from earlier work
T1 construct: expressed in transfected cells

[2] = biological target: T2, ovine FPB prostanoid receptor (Ovis aries, UniProt Q28905); experiment: Immunofluorescence microscopy of β-catenin and E-cadherin localization; assay type: cell-based; conditions: 1 μM PGF2α, FPB expressing cells
T2 construct: expressed in transfected cells
Protocol: (§1) FIG. 1. A, phase contrast microscopy (x225) of FPA and FPB expressing cells after treatment with either vehicle (panels a and c) or 1 μM PGF2α (panels b and d) for 1 hour at 37° C. B, β-catenin FITC immunofluorescence (green) and nuclear DAPI fluorescence (blue) microscopy (x225) of FPA and FPB cells after the same treatment. Cells were labeled and prepared for microscopy as described in Experimental Procedures. The results are representative of more than three experiments.
(§2) Immunofluorescence Microscopy. HEK-293 cells stably expressing the ovine FPA and FPB prostanoid receptor isoforms (5) were split and grown in six-well plates containing 22-mm round glass cover slips for 3-4 days. Cells were treated with either vehicle (sodium carbonate, 0.002% final) or 1 μM PGF2α and were rapidly washed, fixed, and incubated with a 1:1000 dilution of a mouse monoclonal antibody to β-catenin (Transduction Laboratories). They were then washed and incubated with a 1:4000 dilution of an FITC-conjugated goat anti-mouse secondary antibody (Sigma). Nuclei were stained with 4′,6-diamidino-2-phenylindole (DAPI, Sigma). Cells were visualized by phase-contrast and epifluorescence microscopy as previously described (6).

[3] = biological target: T1, ovine FPA prostanoid receptor; experiment: as above; assay type: cell-based; conditions: 1 μM PGF2α, FPA expressing cells
Protocol: as §1, §2

[4] = biological target: T2, ovine FPB prostanoid receptor; conditions: FPB expressing cells; cited from earlier work
[5] = biological target: T1, ovine FPA prostanoid receptor; conditions: FPA expressing cells, after removal of PGF2α; cited from earlier work
[6] = biological target: T2, ovine FPB prostanoid receptor; experiment: RT-PCR of β-catenin mRNA; assay type: cell-based; conditions: 1 μM PGF2α, 1 hour, FPB expressing cells
Protocol: (§3) FIG. 2. A, Immunoblot of β-catenin in particulate and cytosolic fractions prepared from FPA and FPB expressing cells after treatment with either vehicle (lanes a and c) or 1 μM PGF2α (lanes b and d) for 1 hour at 37° C. B, RT-PCR of β-catenin and control glyceraldehyde-3-phosphate dehydrogenase (GAPDH) mRNA from FPA and FPB expressing cells after the same treatment. Immunoblotting (10 μg of protein per sample) and RT-PCR were done as described in Experimental Procedures. Results for both the immunoblotting and RT-PCR are representative of three independent experiments.
(§4) RT-PCR. RT was done using the Superscript Preamplification System (Life Technologies) and 1 μg of RNA/sample that had been pretreated with DNase I. This was followed by PCR using an initial incubation at 94° C. for 5 minutes, followed by 20 cycles of 94° C., 60° C., and 68° C. each for 2 minutes, and a final incubation at 68° C. for 10 minutes. The human β-catenin and GAPDH primner pairs were exactly according to Rezvani & Liew (8). Product sizes were 521 bp for β-catenin and 737 bp for GAPDH and were resolved by electrophoresis on 1.5% agarose gels. Preliminary experiments were done to find the optimal conditions for quantitative amplification of β-catenin and GAPDH rnRNA.

[7] = biological target: T1, ovine FPA prostanoid receptor; experiment: RT-PCR of β-catenin mRNA; assay type: cell-based; conditions: 1 μM PGF2α, 1 hour, FPA expressing cells
Protocol: as §3, §4

[8] = biological target: T2, ovine FPB prostanoid receptor; conditions: FPB expressing cells, after removal of PGF2α; cited from earlier work
[9] = biological target: T2, ovine FPB prostanoid receptor; experiment: Tcf/Lef Reporter Gene Assay; assay type: cell-based; conditions: FPB expressing cells
Protocol: (§5) FIG. 4. A, phase contrast microscopy (x225) and B, stimulation of Tcf/Lef responsive luciferase reporter gene activity after FPA and FPB expressing cells were treated with either vehicle or 1 μM PGF2α for 1 hour and were washed extensively drug-free media and incubated for an additional 16 hours at 37° C. in drug-free media. The transfection conditions, drug washout, and luciferase assay are provided in Experimental Procedures. Luciferase data are normalized to the vehicle treated FPA cells and are the means+/−the standard errors of three independent experiments each performed in duplicate.
(§6) Tcf/Lef Reporter Gene Assay. Cells were split into 10-cm dishes and the next day were transiently transfected using FuGENE-6 (Roche) and either 10 jLg/dish of the wildtype Tcf/Lef reporter plasmid, TOPflash, or the mutant plasmid, FOPflash. FOPflash differs from TOPflash by mutation of its Tcf binding sites and serves to differentiate Tcf/β-catenin mediated signaling from background (Upstate Biotechnology). Cells were incubated overnight and were treated for 1 hour at 37° C. with either vehicle or 1 JμM PGF2α. They were then rapidly washed three times each with 2 ml of Opti-MEM (Life Technologies) as previously described (6) and incubated for 16 hours at 37° C. in 10 ml of Opti-MEM containing 250 μg/ml geneticin, 200 μg/ml hygromycin B, and 100 μg/ml gentamicin. Cells were placed on ice, rinsed twice with ice cold PBS, and extracts were prepared using the Luciferase Assay System (Promega). Luciferase activity in the extracts (˜500 ng protein/sample) was measured using a Turner TD-20/20 luminometer and was corrected for background by subtraction of FOP-FLASH values from corresponding TOP-FLASH values.

[10] = biological target: T1, ovine FPA prostanoid receptor; experiment: Tcf/Lef Reporter Gene Assay; assay type: cell-based; conditions: FPA expressing cells
Protocol: as §5, §6

[11] = biological target: T2, ovine FPB prostanoid receptor; experiment: Immunoprecipitation and immunoblotting of β-catenin; assay type: cell-based; conditions: 1 μM PGF2α, 1 hour
Protocol: as §3
(§7) FIG. 3. Immunoblot (IB) of β-catenin (β-cat) in cytosolic fractions and nuclear extracts; and immunoblot of serine/threonine phosphorylated (PS/PT) cytosolic β-catenin, from FPA and FPB expressing cells after treatment with either vehicle (lanes a and c) or 1 μM PGF2α (lanes b and d) for 1 hour at 37° C. Cytosolic fractions were prepared as described in Experimental Procedures and samples (100 μg protein) were immunoprecipitated (IP) with antibodies to β-catenin and were first probed with antibodies to phosphoserine and phosphothreonine (upper panel); and then were stripped and reprobed with antibodies to β-catenin (middle panel). Immunoblotting of nuclear extracts (lower panel) was done with 10 μg protein per sample without prior immunoprecipitation. Results are representative of three independent experiments.
(§8) Immunoprecipitaaion and Blotting. Cells were scraped and sonicated in a lysis buffer consisting of 20 mM Tris-HCl (pH 7.5), 10 mM EDTA, 2 mM EGTA, 2 mM phenylmethylsulfonylfluoride, 0.1 mg/ml leupeptin and 2 mM sodium vanadate. Samples were centrifuged (16,000×g) for 15 minutes at 4° C. and the supernatant (cytosolic fraction) was removed and the pellet (particulate fraction) was solubilized with lysis buffer containing 0.2% Triton X-100 and then centrifuged again to remove insoluble debris. For immunoprecipitation, samples were rotated for 2 hours at 4° C. with antibodies to β-catenin, followed by addition of protein-G sepharose (Amersham) and rotation for another hour. The sepharose was washed with lysis buffer and then resuspended with SDS-PAGE sample buffer and boiled. Samples were electrophoresed on 7.5% SDS-polyacrylamide gels, transferred to nitrocellulose membranes, and incubated with either antibodies to P-catenin or with a mixture of mouse monoclonal antibodies to phosphoserine (Sigma) and phosphothreonine (Sigma). The membranes were washed and incubated with horseradish peroxidase-conjugated goat anti-mouse secondary antibodies and were visualized by enhanced chemiluminiescence (SuperSignal, Pierce). Nuclear extracts were prepared according to the method of Dignam as modified by Westin et al. (7).

[12] = biological target: T1, ovine FPA prostanoid receptor; experiment: as above; assay type: cell-based; conditions: 1 μM PGF2α, 1 hour, FPA expressing cells
Protocol: as §3, §7, §8

[13] = biological target: T2, ovine FPB prostanoid receptor; experiment: Phase contrast microscopy of cell morphology; assay type: cell-based
Protocol: as §1, §5, §2

[14] = biological target: T1, ovine FPA prostanoid receptor; experiment: Phase contrast microscopy of cell morphology; assay type: cell-based
Protocol: as §1, §5, §2

[15] = 1 μM PGF2α 1 hour, washout, 16 hours
[16] = 1 μM PGF2α, 1 hour, data not shown

## prostaglandin F2α [PGF2α]
[1]
  Rho activation and downstream effects: activates Rho leading to the formation of actin stress fibers, phosphorylation of p125 focal adhesion kinase and cell rounding
[2]; 1 hour
  β-catenin localization (accumulation in regions of cell-to-cell contact): marked accumulation of β-catenin in regions of cell-to-cell contact
[2]; data not shown
  effects on E-cadherin localization: not apparent
[3]; 1 hour
  β-catenin localization (accumulation in regions of cell-to-cell contact): but not in FPA expressing cells
[3]; data not shown
  effects on E-cadherin localization: not apparent
[4]
  Rho activation and downstream effects: activates Rho leading to the formation of actin stress fibers, phosphorylation of p125 focal adhesion kinase and cell rounding
[5]
  time to reversal of morphological changes following removal of PGF2α: ≤ 1 hour
[6]
  β-catenin mRNA levels: not affected
[7]
  β-catenin mRNA levels: not affected
[8]
  reversal of morphological changes following removal of PGF2α: remain rounded even after 48 hours
[9]; [15]
  Tcf/Lef luciferase activity relative to vehicle control or PGF2α treated FPA cells: roughly 6.5 fold
  Tcf/Lef luciferase reporter gene activity 16 hours after agonist removal: profound stimulation
[9]; [16]
  Tcf/Lef luciferase reporter gene activity immediately following treatment: did not stimulate luciferase activity
[10]; [15]
  Tcf/Lef luciferase reporter gene activity 16 hours after agonist removal: essentially absent
[10]; [16]
  Tcf/Lef luciferase reporter gene activity immediately following treatment: did not stimulate luciferase activity
[11]; FPB expressing cells
  levels of β-catenin in the particulate fraction: little effect
  serine/threonine phosphorylation of cytosolic β-catenin: dramatic fall in phosphorylation
[11]; FPB expressing cells as compared with FPA expressing cells
  β-catenin in nuclear extracts: significantly higher levels of β-catenin
[11]; cytosolic fraction, FPB expressing cells
  levels of cytosolic β-catenin: increased the levels of cytosolic β-catenin; also recorded: further increase in cytosolic β-catenin
[12]
  levels of β-catenin in the particulate fraction: little effect
  serine/threonine phosphorylation of cytosolic β-catenin: marked increase in phosphorylation
[12]; cytosolic fraction
  levels of cytosolic β-catenin: increased the levels of cytosolic β-catenin; also recorded: levels of cytosolic β-catenin increase
[13]; 1 μM PGF2α 1 hour, washout, 16 hours in drug-free media, FPB expressing cells
  cell morphology 16 hours after washout: remain rounded and aggregated
[13]; 1 μM PGF2α, 1 hour, HEK cells stably expressing ovine FPB
  morphological changes: loss of filopodia and formation of cell aggregates
[14]; 1 μM PGF2α 1 hour, washout, 16 hours in drug-free media, FPA expressing cells
  cell morphology 16 hours after washout: return to their original dendritic morphology
[14]; 1 μM PGF2α, 1 hour, HEK cells stably expressing ovine FPA
  morphological changes: loss of filopodia and formation of cell aggregates

“Also recorded” adds a separate entry of the source.
